## Antibody variant affinities, Ab-95 light chain, assay 2

The target is the same throughout: PDVDLGDISGINAS, from the HR2 region of SARS-CoV-2 spike.

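Phage display of a naive human antibody library on the peptide gave the parent. In library AAYL52, one, two or three CDR residues were substituted; doubles and triples were drawn at random. AlphaSeq pools MATa yeast showing the antibodies with MATalpha yeast showing the peptide. Pairs that bind mate more often; barcode pairs of the diploids are counted by sequencing. Scores were corrected for input abundance and mapped to Kd with protein pairs of known affinity run in the same pool. There are three technical replicates.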

Parent scFv Ab-95: VH joined to VL by three GGGGS repeats. Changes lie in the light chain CDRs alone.
VH: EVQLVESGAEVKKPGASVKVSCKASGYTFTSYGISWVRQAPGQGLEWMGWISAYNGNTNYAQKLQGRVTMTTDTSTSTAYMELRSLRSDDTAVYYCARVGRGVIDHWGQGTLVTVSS
VL: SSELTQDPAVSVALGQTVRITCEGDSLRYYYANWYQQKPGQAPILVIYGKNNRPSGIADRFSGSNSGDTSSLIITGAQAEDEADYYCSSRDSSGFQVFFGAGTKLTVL

Each variant is given by its three light chain CDRs, as the data file delimits them; those of the parent are EGDSLRYYYAN, GKNNRPS, SSRDSSGFQVF.
The read-out is the apparent dissociation constant on a log10 scale (nM): the lower, the stronger.
"ND" marks a missing value. The strain was present, yet no cells mated with the target were sequenced in that replicate, which points to weak or no binding.

CDR-L1	CDR-L2	CDR-L3	log10 Kd (nM) by replicate	empty controls
EGDSLRYYYAN	GKNNRPP	SSRDSSGFQVF	2.46 2.39 2.45	5/9 (3.86)
EGDSLRYYYAN	GKNNRPS	SSRDSRGFEVF	2.82 3.12 2.94	4/9 (4.27)
EGDSLRYYYAN	GKWNRPS	FSRDSSGEQVF	ND 4.42 ND	0/9
HGDSLKYYYAN	GKNNRMS	SSRDSSGFQVF	1.87 1.47 1.22	0/9
EGDSFRYYYAN	GKNNFGS	SSRDSSGFQVF	ND 4.88 ND	2/9 (4.43)
EGDSWRYSYLN	GKNNRPS	SSRDSSGFQVF	3.61 3.22 3.19	3/9 (3.76)
EGDSDRSYYAN	GCNNRPS	SSRDSSGFQVF	4.00 ND 4.08	6/9 (3.78)
MGDSLRYYYAQ	GKNNRNS	SSRDSSGFQVF	ND 2.87 ND	2/9 (3.24)
EGDSLRYQYMN	GKNNRPS	SSRDMSGFQVF	1.94 2.09 1.81	3/9 (3.76)
EGASLRYYYAN	GKNNRPS	SSDDSYGFQVF	5.29 4.13 ND	0/9
EGDSNRYYYAN	GKNNRPS	SSWDSSGFQMF	3.86 ND 2.80	3/9 (3.88)
EGDWLWYYYAN	GKNNRPL	SSRDSSGFQVF	4.20 ND ND	2/9 (4.08)
GGDSLRYYYAN	GKNNRPS	SSRDSWGFQRF	2.34 2.43 2.45	6/9 (3.86)
EGDSLRYYYAL	GKNNRPS	SSSDSSGFQLF	ND 5.44 ND	4/9 (3.59)
EGCSLRYYYDN	GKNNRPS	SSRDSSGFQIF	3.45 ND ND	1/9 (4.03)
EGDSLRYYYSN	GKNNRPS	QSRDSSPFQVF	4.81 3.10 4.06	5/9 (4.32)
EGDSLRYYYMN	GKNNRDS	SSRDSSSFQVF	ND 3.83 ND	2/9 (4.10)
EGDSLRMYYAN	GKNNRPS	SSRDSSGFQVS	3.17 3.19 3.00	2/9 (3.65)
ECDSLKYYYAN	GKNNRPS	SSRDDSGFQVF	ND 5.17 ND	0/9
EGDSLRYYYAN	KWNNRPS	SSRDSSGFQVF	ND ND ND	1/9 (5.22)
EGDSQRYYYAN	GKNNRPS	SSRDMSGFQVF	3.03 3.22 2.26	4/9 (4.11)
EGDSLRYYYEN	GKNNRPS	SSRDSSGFQVN	3.47 ND ND	1/9 (3.84)
YGDSLRYYYAN	GKNNRPS	SSRDSSYFQVF	3.66 3.04 3.07	3/9 (3.51)
EGDSLRYYYAN	NKWNRPS	SSRDSSGFQVF	ND 4.15 ND	4/9 (3.75)
EGDSGRYYYGN	GKNNRPS	SSRDESGFQVF	3.69 ND ND	4/9 (3.29)
EGDSLRGCYAN	GKNNRAS	SSRDSSGFQVF	1.74 1.69 2.14	1/9 (3.80)
EGDSLRYYYAN	GKNNRPS	SSGKSSGFQGF	ND ND 2.62	0/9
EGDSLPYYYCN	GKNNRPS	SSRDSSGFWVF	3.59 ND ND	4/9 (4.10)
EGDSLRYYYAN	GKNNRPS	SSRDCMGFQVF	2.59 2.48 2.70	2/9 (4.40)
EGDSLLYYYAN	GKFNRPS	SSRDSSGNQVF	3.88 5.10 3.04	3/9 (4.04)
EGDSLRYYYAE	GKNNRFS	SKRDSSGFQVF	4.25 6.01 4.80	2/9 (3.50)
EGMSLRYYYAN	GKNNRPS	SSRDSSGFRVF	2.17 2.71 2.36	2/9 (3.58)
GGDSLRYYYAN	GKNLRPS	FSRDSSGFQVF	5.03 3.30 3.51	2/9 (3.40)
EGDSLRAYYAN	GKNNRPS	YSRDPSGFQVF	3.14 2.07 ND	0/9
ECDSLRYYQAN	GENNRPS	SSRDSSGFQVF	2.10 2.03 1.57	2/9 (4.29)
SGDSLRIYYAN	TKNNRPS	SSRDSSGFQVF	4.94 3.76 4.40	3/9 (4.60)
EGDTLRYYYAN	GKNNDPS	SSRDSSGFQVA	ND ND ND	1/9 (3.67)
EGDSLRYYYAN	GKLNRPS	SSWDSSCFQVF	5.13 5.54 ND	6/9 (4.11)
EGDSLRYYYAF	GINDRPS	SSRDSSGFQVF	2.60 3.27 3.17	3/9 (3.49)
EGDSLRYYYAN	GRNIRPS	SSRDRSGFQVF	2.47 2.41 2.94	0/9
ENDSLRHYYAN	GKNNRPS	SSRDSSGFQVF	ND 3.58 ND	1/9 (5.19)
EGVSIRYYYAN	GKDNRPS	SSRDSSGFQVF	2.90 2.78 3.00	3/9 (4.87)
EGDSLRYYSAR	GKNNRPS	KSRDSSGFQVF	ND 3.96 ND	0/9
EGDSLRYYYAN	GKNNRTS	SSRDSSIHQVF	3.01 3.04 2.59	2/9 (5.05)

The opening 3 entries, copied out:

CDR-L1,CDR-L2,CDR-L3,log10 Kd (nM) by replicate,empty controls
EGDSLRYYYAN,GKNNRPP,SSRDSSGFQVF,2.46 2.39 2.45,5/9 (3.86)
EGDSLRYYYAN,GKNNRPS,SSRDSRGFEVF,2.82 3.12 2.94,4/9 (4.27)
EGDSLRYYYAN,GKWNRPS,FSRDSSGEQVF,ND 4.42 ND,0/9

Empty control strains, which show no peptide, gave a signal in 28% of pairings with library AAYL52; the median was 3.91 and 95% of these signals were weaker than 2.90. No background was subtracted. For each scFv, signals with the empty controls are counted beside the result, with their mean in brackets.
In this assay the parent's reference entry averaged 2.31; its copy inside this library read 2.25.

Reference: Engelhart et al. 2022, doi:10.1038/s41597-022-01779-4. File: FLAb, binding data.